# Assay results taken from patent US20120093806A1, “ANTITUMOR COMBINATIONS CONTAINING ANTIBODIES RECOGNIZING SPECIFICALLY CD38 AND CYTARABINE” (SANOFI-AVENTIS, priority 2008, published 2012).
# Conditions: days 18, 21, 24, 27
# Protocol: The animals subjected to the experiment, generally mice, are subcutaneously grafted bilaterally with 30 to 60 mg of a tumor fragment on day 0. The animals bearing tumors are randomized based on their tumor size before being subjected to the various treatments and controls. Chemotherapy begins when tumors have reached a predetermined size after grafting, depending on the type of tumor, and the animals are observed every day. […] The groups are then weighed once or twice a week until the end of the trial.
# The selected tumor model was a transplantable human T-cell acute lymphoblastic leukemia (T-ALL) cell line, DND-41, implanted in SCID mice.
# Hu38SB19 was formulated in phosphate buffer saline, without Ca^2+ and Mg^2+, pH7.4. Hu38SB19 was administered intravenously on days 18, 21, 24, 27 after tumor implantation.
smiles,measurement,setting,value
CCCCCCCCCCCCCCCC(=O)Nc1ccn([C@@H]2O[C@H](CO)[C@@H](O)[C@@H]2O)c(=O)n1 [Palmo Ara-C],drug death (deaths/mice treated),Palmo Ara-C 22.3 mg/kg/inj SC (total 89.2),0/6
same,drug death (deaths/mice treated),Palmo Ara-C 36.0 mg/kg/inj SC (total 144.0),0/6
same,drug death (deaths/mice treated),Palmo Ara-C 58.0 mg/kg/inj SC (total 232.0),0/6
same,drug death (deaths/mice treated),Palmo Ara-C 96.3 mg/kg/inj SC (total 385.2),6 and 6/6

# Values joined by “and” are separate entries in the source; they are usually repeats but may differ in a detail not shown here. Equal values may be shown once. Read-outs that look alike come from different tables or passages of the source.
